Apparent affinities of Ab-95 variants for a coronavirus HR2 peptide

Reference: Engelhart et al. 2022, doi:10.1038/s41597-022-01779-4. File: FLAb, binding data.

Target: peptide PDVDLGDISGINAS, taken from heptad repeat 2 (HR2) of SARS-CoV-2 spike.

Parent: Ab-95, a human scFv built as VH, a 15-residue (Gly4Ser)3 linker, VL. Only the CDRs of the light chain vary.
VH: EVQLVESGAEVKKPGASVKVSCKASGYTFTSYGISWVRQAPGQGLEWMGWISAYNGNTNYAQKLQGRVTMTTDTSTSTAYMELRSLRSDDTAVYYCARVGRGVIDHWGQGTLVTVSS
VL: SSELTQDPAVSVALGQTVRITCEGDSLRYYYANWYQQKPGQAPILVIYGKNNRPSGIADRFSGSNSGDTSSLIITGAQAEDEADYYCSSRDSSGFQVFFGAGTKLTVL

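The starting antibody came from a phage panning campaign against this peptide. In library AAYL52, one, two or three CDR residues were substituted; doubles and triples were drawn at random. AlphaSeq pools MATa yeast showing the antibodies with MATalpha yeast showing the peptide. The frequency of each diploid, read from paired DNA barcodes, reflects how well the two displayed proteins bind. Scores were corrected for input abundance and mapped to Kd with protein pairs of known affinity run in the same pool. Mating was done three times.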

Each variant is given by its three light chain CDRs, as the data file delimits them; those of the parent are EGDSLRYYYAN, GKNNRPS, SSRDSSGFQVF. Scale: log10 of Kd in nM, estimated from mating counts; low values are strong binders. A pair that was not seen in that replicate is written "ND"; this usually means weak binding, but a binder can also be missed. Background: pairings of library AAYL52 with three empty control strains gave a value in 28% of cases (median 3.91, 5th percentile 2.90). Values in that range, when seen in few replicates, are hard to tell from nonspecific mating. Also given: how often the same scFv was detected with the empty control strains, with their mean in brackets. In this assay the parent's reference entry averaged 2.31; its copy inside this library read 2.25.

CDR-L1	CDR-L2	CDR-L3	replicates, log10 nM	control signals
EGDSLRYYYAN	GWNNRPS	SSRNSSLFQVF	4.66 4.42 3.99	4/9 (3.64)
EGDSLRYYYAN	GKNNRPV	SSRDSMDFQVF	ND 3.43 ND	2/9 (4.46)
EGDSLRYYYAN	GKNNRPS	SDRDSWGFQVF	5.66 5.14 ND	2/9 (4.39)
EGDSLRYMYAN	GKNNRPS	SFRDSCGFQVF	1.66 1.48 1.23	3/9 (5.25)
EGDSLRYGYAN	GRNNRPS	SSRDSSGFQVF	1.00 0.88 0.32	0/9
EGDNERYYYAN	PKNNRPS	SSRDSSGFQVF	4.83 ND 3.21	1/9 (5.22)
EVDSLRYYYAN	GKNNRPD	SGRDSSGFQVF	4.25 3.07 2.71	1/9 (4.59)
EFDSLRYYYAN	GKNNRPS	SSDDSSGHQVF	3.98 ND ND	2/9 (4.48)
EGDSLLYYYAN	GHNNRPS	SSRDSSLFQVF	2.66 2.60 2.21	0/9
EGDGLRYYYVN	GKNVRPS	SSRDSSGFQVF	3.25 3.82 2.98	4/9 (3.93)
EGDNLRYYYAN	SKLNRPS	SSRDSSGFQVF	4.44 ND ND	2/9 (3.71)
EGDSLRYYYYN	GKNNRPS	PSCDSSGFQVF	ND 3.74 ND	1/9 (4.02)
EGDSLRYYYAN	MKNNFPS	SDRDSSGFQVF	4.87 ND ND	2/9 (4.49)
EGDSLRYYYAT	GKNNRCS	SSEDSSGFQVF	ND 5.28 ND	4/9 (3.49)
EGDSLRYYYAN	PKNNRPS	SSRDHHGFQVF	ND 5.35 ND	1/9 (3.64)
EGDSLRPYYAN	GKNNRPS	SSRDSSGFQGF	2.75 2.38 2.26	5/9 (3.78)
EGDSLRYYYPN	GKNNRNS	SSRFSSGFQVF	3.21 2.77 3.48	3/9 (4.74)
EGDSLRYYYAN	GKNNRPS	SSGDSSNFQVF	3.51 5.47 ND	3/9 (3.60)
EGDSLRYYYAN	GKNWRPS	SARDSSGFQVF	2.40 2.30 2.02	1/9 (5.10)
EGDSLEYYYAE	GRNNRPS	SSRDSSGFQVF	4.36 3.91 3.44	2/9 (4.07)
EGASDRYYYAN	GKNNRPS	SSRDSSGQQVF	3.02 ND ND	0/9
EGDSLRYYFAN	GKNPRLS	SSRDSSGFQVF	ND ND 3.41	6/9 (4.23)
EGDSLRYYYAN	GKNNRPS	PSRDSSGFQLF	2.49 2.13 2.03	3/9 (4.45)
EGDSLRYYYAN	GKNNRPS	SPHCSSGFQVF	ND 3.41 ND	1/9 (4.24)
EGDSLRYYYAN	GKNNRPI	SSRDSSGFQVF	2.44 2.39 2.32	0/9
EGDSLRYYMAN	GKNNRSS	VSRDSSGFQVF	4.26 3.83 ND	3/9 (3.35)
EGDSLRYYYAN	GKNNRPS	GSRDFIGFQVF	2.80 2.13 2.19	0/9
EGDSLDYYYAW	GKFNRPS	SSRDSSGFQVF	5.23 2.94 3.68	3/9 (4.00)
EGFSLRYYYAD	GKNNRPS	SSRDSPGFQVF	5.73 5.63 3.87	6/9 (3.95)
EGDSVRYYYAN	GKNNYPS	SSRDSSGFQVI	ND ND 3.99	5/9 (4.19)
EGDVLRYYYAN	GKNGRLS	SSRDSSGFQVF	2.88 4.38 ND	2/9 (4.21)
EGDSLRYYYAN	TKNNVPS	GSRDSSGFQVF	3.72 3.19 3.49	1/9 (5.13)
EGDLLRYYLAN	GKNNRPS	SSRDSMGFQVF	3.88 ND 4.21	4/9 (4.05)
EGDSLRYYYAN	GKMNRPS	SSRDRYGFQVF	ND ND 3.64	4/9 (3.96)
EGDGLRYYYAN	GKMNRPS	SSRDSSGFDVF	2.40 2.65 2.27	1/9 (3.25)
EGSSLRYYYAS	GKNNRPS	SSRDTSGFQVF	4.21 3.02 3.49	2/9 (3.41)
EGDSLRYYYAT	GKNNRPS	GSRDSSAFQVF	3.05 4.36 ND	4/9 (4.22)
EGDSFRCYYAN	GKNNRPS	SSRDSSGFQVF	ND ND 3.62	3/9 (3.54)
EGDSLRYWYAN	GQNNRPS	SSSDSSGFQVF	ND ND ND	4/9 (3.57)
EGDSLRYYYAN	GKNNRPM	SYRDSWGFQVF	5.36 ND 4.16	1/9 (3.17)
EGDSLRYYYEN	GKNNRPD	SSRDSSGFQVV	5.76 ND 4.66	4/9 (4.00)
EGDSLRYVYAN	VKNNRPS	SSRDSSGKQVF	5.29 ND ND	2/9 (3.62)
EDQSLRYYYAN	GKNNRPS	SSRGSSGFQVF	3.45 3.43 2.89	4/9 (3.83)

A selection of 5 entries from above:

| CDR-L1 | CDR-L2 | CDR-L3 | replicates, log10 nM | control signals |
|---|---|---|---|---|
| EGDSLRYYYAN | GKNNRPV | SSRDSMDFQVF | ND 3.43 ND | 2/9 (4.46) |
| EGDSLEYYYAE | GRNNRPS | SSRDSSGFQVF | 4.36 3.91 3.44 | 2/9 (4.07) |
| EGDSLRYYYAT | GKNNRPS | GSRDSSAFQVF | 3.05 4.36 ND | 4/9 (4.22) |
| EGDSLRYYYAN | TKNNVPS | GSRDSSGFQVF | 3.72 3.19 3.49 | 1/9 (5.13) |
| EGDSLRYWYAN | GQNNRPS | SSSDSSGFQVF | ND ND ND | 4/9 (3.57) |